Measurements reported in paper PMC3078584.
Like-named read-outs stand apart in the source and are kept apart here.

T1: Labeled ZAP70 peptide 1, Flu-βA-TLNSDGpYTPEPA-CONH2
T1 chain: TLNSDGYTPEPA


Assays:
Assay in all cases: fluorescence polarisation
[1] = target: T1, Labeled ZAP70 peptide 1, …
[2] = target: T1, Labeled ZAP70 peptide 1, …
[3] = target: T1, Labeled ZAP70 peptide 1, …
[4] = target: T1, Labeled ZAP70 peptide 1, …
[5] = target: T1, Labeled ZAP70 peptide 1, …

Row | Binder | Kd [1] [nM] | Kd [2] [nM] | Kd [3] [nM] | Kd [4] [nM] | Kd [5] [nM]
1 | His-Cbl(TKB) (domain or fragment, modifications not checked) MAGNVKKSSGAGGGSGSGGSGSGGLIGLMKDAFQPHHHHHHHLSPHPPGTVDKKMVEKCWKLMDKVVRLCQNPKLALKNSPPYILDLLPDTYQHLRTILSRYEGKMETLGENEYFRVFMENLMKKTKQTISLFKEGKERMYEENSQPRRNLTKLSLIFSHMLAELKGIFPSGLFQGDTFRITKADAAEFWRKAFGEKTIVPWKSFRQALHEVHPISSGLEAMALKSTIDLTCNDYISVFEFDIFTRLFQPWSSLLRNWNSLAVTHPGYMAFLTYDEVKARLQKFIHKPGSYIFRLSCTRLGQWAIGYVTADGNILQTIPHNKPLFQALIDGFREGFYLFPDGRNQNPDLTGLCEPTP | 460 | 470 | 520 | 410 | 540
2 | GST-Cbl(TKB) (domain or fragment, modifications not checked) MAGNVKKSSGAGGGSGSGGSGSGGLIGLMKDAFQPHHHHHHHLSPHPPGTVDKKMVEKCWKLMDKVVRLCQNPKLALKNSPPYILDLLPDTYQHLRTILSRYEGKMETLGENEYFRVFMENLMKKTKQTISLFKEGKERMYEENSQPRRNLTKLSLIFSHMLAELKGIFPSGLFQGDTFRITKADAAEFWRKAFGEKTIVPWKSFRQALHEVHPISSGLEAMALKSTIDLTCNDYISVFEFDIFTRLFQPWSSLLRNWNSLAVTHPGYMAFLTYDEVKARLQKFIHKPGSYIFRLSCTRLGQWAIGYVTADGNILQTIPHNKPLFQALIDGFREGFYLFPDGRNQNPDLTGLCEPTP |  | 1200 |  |  | 
